Assay results from US20160081959A1, “METHOD OF USING ARGININE SILICATE INOSITOL COMPLEX FOR WOUND HEALING OR REPAIR” (Glanbia plc, priority 2014, published 2016).

Experiment: Human clinical PK/PD/safety study of Nitrosigine (plasma arginine, serum silicon)
Type: in vivo
Source text: See, Kalman D, Feldman S, Samson A, Krieger D., “A clinical evaluation to determine the safety, pharmacokinetics and pharmacodynamics of an inositol-stabilized arginine silicate dietary supplement in healthy adult males,” The FASEB Journal (April 2014) 28(1 Suppl.): LB418.
Purpose: The purpose of this study was to characterize the PK/PD of Nitrosigine®, an inositol-stabilized arginine silicate dietary supplement.
Type: Prospective, pharmacokinetic (PK)/pharmacodynamic (PD)/safety clinical trial.
Dosing: Nitrosigine® was administered as daily doses of 1,500 mg (3×500 mg tablets). Study subjects were supplied with ASI tablets and instructed to take 3×500 mg tablets with 8 ounces of water at the first treatment visit (Visit 2) and then continue taking this dose daily for 14 days.
Visit 2: single dose evaluation (0-6 hrs), 1500 mg—this was also utilized as the first dose of the 14 day study. It is noted in addition that Visit 2 is also the beginning of the 14 day study, during which subjects take product once a day for 14 days.
Visit 3: 14 days later, single dose (0-6 hrs)
PK Measurements: Plasma arginine and serum silicon levels were measured after the first dose on Day 1 and again after a dose taken on Day 14, after 14 days of dosing. […] (P=0.002); Tmax Day 1: 1.05±0.50 hr.

arginine silicate inositol [ASI]
increase of mean plasma arginine relative to baseline (after 1 hour, single dose 1,500 mg, human): greater than 35%
change in plasma arginine (and serum silica) from baseline, in words (human subjects, single dose of ASI): significant increases in both plasma arginine and serum silica for up to three hours after use; also recorded: statistically significant increases in plasma arginine from baseline at 0.5, 1, 1.5, 2, 3, and 5 hours
Arginine absorption: time after which increase is significant (plasma arginine, 1,500 mg oral, P=0.002): 0.5 h
Silicon absorption: time after which increase is significant (serum silicon, 1,500 mg oral, P=0.002): 1 h

Entries after “also recorded” stand apart in the source; their conditions may differ.
